Experimental data published in patent US5670477A, “Method to enhance permeability of the blood/brain blood/nerve bariers to therapeutic agents” (Poduslo; Joseph F., priority 1995, dated 1997).

Tests used:
[1] = PS and Vp of the blood-nerve barrier, radioiodinated I.V. bolus; format: in vivo, rat (Sprague-Dawley)
Procedure: (§1) Free radioactive iodine was separated from the radiolabeled conjugates and agents by dialysis against 0.2M NaI.
(§2) After the final blood sample was collected, the animal was sacrificed, the brain and meninges removed, and the brain dissected into the cortex, caudateputamen (neostriatum), hippocampus, thalamus, brain stem, and cerebellum. The sciatic nerve was also rapidly removed and desheathed. Tissue was lyophilized, and dry weights were determined with a microbalance and converted to respective wet weights with wet weightry weight ratios previously determined for the desheathed rat sciatic nerve and the various brain regions. […] Statistical evaluations were performed using the t-test with significance accepted at the P<0.05 level.

[2] = PS and Vp of the blood-brain barrier, radioiodinated I.V. bolus; format: in vivo, rat (Sprague-Dawley); details: x ± SEM
Procedure: as §1, §2

Substance	PS of the BNB, RI vs. native protein ([1]; nerve)	Vp of the BNB, RI vs. native protein ([1]; nerve)	PS of the BNB ([1]; nerve / endoneurium) [mL/s]	PS of the BNB ([1]; nerve, x ± SEM) [ml/g/sec × 10^6]	Vp (residual plasma volume) of the BNB ([1]; nerve, x ± SEM) [µL/g]	PS of the BBB ([2]; brain stem) [ml/sec × 10^6]	Vp of the BBB ([2]; brain stem) [µL/g]	PS of the BBB ([2]; caudate-putamen) [ml/sec × 10^6]	Vp of the BBB ([2]; caudate-putamen) [µL/g]	PS of the BBB ([2]; cerebellum) [ml/sec × 10^6]	Vp of the BBB ([2]; cerebellum) [µL/g]	Vp of the BBB ([2]; cortex) [µL/g]	PS of the BBB ([2]; hippocampus) [ml/sec × 10^6]	Vp of the BBB ([2]; hippocampus) [µL/g]	PS of the BBB ([2]; thalamus) [ml/sec × 10^6]	Vp of the BBB ([2]; thalamus) [µL/g]
SPD-ALB: albumin modified with spermidine using water-soluble carbodiimide at pH 4.7	164.8	1.7	3.13e-05	31.32 ± 5.43	3.15 ± 0.72											
ALB: Human albumin (Mr =67,000) isolated from normal human plasma				0.19 ± 0.03	1.86 ± 0.12	0.43 ± 0.03	10.83 ± 0.63	0.11 ± 0.02	4.99 ± 0.49	0.39 ± 0.06	11.94 ± 0.94	4.85 ± 0.59	0.20 ± 0.02	6.23 ± 0.30	0.23 ± 0.03	8.02 ± 0.39
